In article PMC7190706, “A Self-Assembling Lipidic Peptide and Selective Partial V2 Receptor Agonist Inhibits Urine Production” (Scientific Reports, 2020):

Target: T1, OT receptor (Rattus norvegicus, UniProt P70536)
T1 construct: OT receptors from rat uterine strips for our receptor activity assays; from tissue; host or cells: uterine strips of female Wistar rats
T1 sequence (P70536 1-388): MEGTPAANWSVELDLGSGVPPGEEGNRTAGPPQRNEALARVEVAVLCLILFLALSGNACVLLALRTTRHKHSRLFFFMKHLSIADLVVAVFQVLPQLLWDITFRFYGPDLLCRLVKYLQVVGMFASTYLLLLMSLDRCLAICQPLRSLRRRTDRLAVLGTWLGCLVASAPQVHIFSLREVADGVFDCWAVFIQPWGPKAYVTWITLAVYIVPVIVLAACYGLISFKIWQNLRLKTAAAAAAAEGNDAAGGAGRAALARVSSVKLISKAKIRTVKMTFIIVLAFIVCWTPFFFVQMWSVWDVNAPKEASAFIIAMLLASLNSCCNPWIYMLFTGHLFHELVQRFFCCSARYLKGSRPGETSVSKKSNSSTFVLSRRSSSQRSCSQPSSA
Assay: OT induced contractions of isolated uterine strips (organ bath)

With atosiban [reference compound] the “effect on OT induced contractions” value (100 nm of inhibitor) was “shifted the OT induced contraction-concentration curve to the right”, the “nature of antagonism at the OT receptor” value (from double reciprocal plots) was “competitive antagonist” and the “1/Rmax of double reciprocal plot (1/R vs 1/[OT])” value (inhibitor 100 nM, Rmax = maximum contractile response in cm) was 0.47.
